This note sets out measurements from patent US20120088698A1, “WATER IN OIL EMULSION, METHOD FOR THE PRODUCTION THEREOF” (CLARIANT FINANCE (BVI) LIMITED, priority 2009, published 2012).

For series [1], the system named is Artica Tonsa.
In series [2] the test system is Corophium Volulator.
The conditions of series [3]: water/octanol, slow stirring.
The nature of series [4]: Biodegradability, OECD 306 test. The settings on record: OECD 306, 28 days.

Broadly, the LC50 is the concentration that kills 50% of the test population. In the case of “N-oleyl(pyrroildine-2-one)-4-carboxylic acid/morpholine distillation residue salt [OleylPyCOO-AmixM]”, the “48 h NOEC” value in series [1] (48 h) was less than 1.0 mg/L. Also, the “48 h LC90” value in series [1] (48 h, first figure of LC90/100) is 3.0 µg/mL. Also, the “48 h LC100” value in series [1] (48 h, second figure of LC90/100) is 9.1 mg/L. In series [1] (48 hrs), this substance displayed an LC50 of 1.6 µg/mL. In addition, the “LC5@10 days” value in series [2] is listed as 693 mg/kg. The “log Pow” value in series [3] is recorded as 1.6. For the same substance, the “Degradation (biodegradability)” value in series [4] is on record as 70%.
